# Data taken from PubChem BioAssay AID886 (National Center for Advancing Translational Sciences (NCATS), 2007).
# Chains of the proteins cited; added tags and fusions are not shown.
# UniProt Q99714, whole entry: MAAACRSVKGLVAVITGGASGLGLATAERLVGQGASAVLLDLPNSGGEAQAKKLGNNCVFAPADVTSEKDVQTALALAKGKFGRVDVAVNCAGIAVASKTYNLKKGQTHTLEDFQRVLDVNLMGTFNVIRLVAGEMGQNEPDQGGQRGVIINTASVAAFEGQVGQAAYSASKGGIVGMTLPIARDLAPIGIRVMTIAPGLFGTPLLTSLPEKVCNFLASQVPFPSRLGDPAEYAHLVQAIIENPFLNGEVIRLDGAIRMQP
# The entries are a selection whose mix differs from that of the whole data set. Records with an inconclusive call do not appear. Activity calls are given as the source filed them. The call rests on the fitted dose curve; in most records, active means well fitted inhibition curve with a large enough effect; inconclusive means small, poorly fitted or top-dose-only effect; inactive means no such curve, though single readings can be large or run the other way.
# Target: 3-hydroxyacyl-CoA dehydrogenase type-2 (Homo sapiens) (UniProt Q99714)
# Test: qHTS Assay for Inhibitors of HADH2 (Hydroxyacyl-Coenzyme A Dehydrogenase, Type II); further: nearly all actives have a fitted effect of over 60% in size
# Details: recombinant HADH2, NADH fluorescence, beta-hydroxybutyryl-CoA; series mostly up to 57.1 µM; activity change, negative = inhibition: at the top concentration
# On the % scale 0 is the no-effect control and ±100 the full control effect; potency means the concentration at half of the fitted maximal effect.
Compound,"activity change, negative = inhibition",Potency
CCOP(C)(=S)SCC(=O)NC(C)C(=O)O (stereo unspecified),inactive: 15.9%,–
CP(=O)(NC(=O)Nc1ccccc1)Oc1ccccc1 (stereo unspecified),inactive: 7.33%,–
N1=C(c2nnc(-c3nn[nH]n3)nn2)NNN1,inactive: 7.27% [at 11.4 µM],–
Cc1ccc(NP(C)(=O)Oc2ccccc2)c(C)c1 (stereo unspecified),inactive: -1.7%,–
COc1ccccc1OP(C)(=O)Nc1ccc(C)cc1 (stereo unspecified),inactive: 0.348%,–
O=[N+]([O-])[O-].[NH4+],inactive: -1.62%,–
Cc1ccc(C)c(NP(C)(=O)Oc2ccccc2)c1 (stereo unspecified),inactive: -2.06%,–
Cc1ccc([N+](=O)[O-])cc1[N+](=O)[O-],inactive: 3.47%,–
O=[N+]([O-])c1cccc([N+](=O)[O-])c1,inactive: -1.22%,–
Cc1nc2ccc3ccccc3c2s1.O=[N+]([O-])c1cc([N+](=O)[O-])c(O)c([N+](=O)[O-])c1,inactive: -5.03%,–
CP(=O)(Nc1ccc2c(c1)OCCO2)Oc1ccccc1 (stereo unspecified),inactive: 1.46%,–
[NH4+].[O-][Cl+3]([O-])([O-])[O-],inactive: 4.3%,–
Cc1ccccc1NP(C)(=O)Nc1ccccc1C,inactive: 8.14%,–
CCOP(=O)(CC)OCC,inactive: 0.0866%,–
CCOP(C)(=S)SCC(=O)NC(C)(CC)C(=O)O (stereo unspecified),inactive: 5.38%,–
Cc1c([N+](=O)[O-])cccc1[N+](=O)[O-],inactive: 2.56%,–
Cc1ccc([N+](=O)[O-])c([N+](=O)[O-])c1,inactive: 3.23%,–
CN(C)CCOC(=O)C(O)(c1ccccc1)C1CCCCC1 (stereo unspecified),inactive: 3.84%,–
Cc1cccc([N+](=O)[O-])c1[N+](=O)[O-],inactive: -0.436%,–
CCC(C)(OO)OOC(C)(CC)OO (stereo unspecified),inactive: -6.02%,–
CP(=O)(Nc1ccccc1F)Oc1ccccc1 (stereo unspecified),inactive: -3.58%,–
CP(=O)(Nc1ccccn1)Oc1ccccc1 (stereo unspecified),inactive: -3.91%,–
COc1ccccc1OP(C)(=O)Nc1ccc(C)c(C)c1 (stereo unspecified),inactive: 13.3%,–
N#[O+].[C-]#N.[C-]#N.[C-]#N.[C-]#N.[C-]#N.[Fe+2].[Na+].[Na+],–,active: 10 µM
CP(=O)(Oc1ccccc1)N1CCOC1=O (stereo unspecified),inactive: -3.46%,–
COc1ccccc1OP(C)(=O)Nc1c(C)n(C)n(-c2ccccc2)c1=O (stereo unspecified),inactive: 16.9%,–
